{"source": "patent US7427395B2", "about": "“Chemotherapeutic agent-incorporated pharmaceutical preparation” (Genomidea Inc., priority 2002, dated 2008)", "system": "mouse colon carcinoma cell CT26", "note": "Read-outs that look alike come from different tables or passages of the source."}
{"substance": "bleomycin", "values": [{"measurement": "degree of viable cells in percentage relative to the medium group (=100%)", "setting": "bleomycin 500 ng/well", "value": 89.4, "unit": "%"}, {"measurement": "degree of viable cells in percentage relative to the medium group (=100%)", "setting": "bleomycin 5 μg/well", "value": 74.8, "unit": "%"}, {"measurement": "degree of viable cells in percentage relative to the medium group (=100%)", "setting": "bleomycin 50 μg/well", "value": 33.9, "unit": "%"}]}
